Test system: N[C@@H](CCC(=O)O)C(=O)O
Test: purified protein, by the assay type
Details: other: pH 7.4, 30.0 °C

novel L-glutamic acid oxidase (Streptomyces sp.)
Km: 210 µM

Reference: US4614714A, “Use of novel L-glutamic acid oxidase” (priority 1982, dated 1986)
